Measured values: patent publication US20210179623A1, “NEW CHEMICAL COMPOUND CONTAINING ACTIVE ENANTIOMETER S-(-) KETOROLAC TROMETHAMINE FOR THE TREATMENT OF PAIN” (priority 2017, published 2021)

Key:
[1] = test system: gouty arthritis-type pain; test: PIFIR pain-induced functional impairment model in the rat; assay type: in vivo, male Wistar rats; conditions: rats, oral route, relative to maximum efficacy of rac-ketorolac
Source text: In order to determine and compare the antinociceptive effects of these analgesics the preclinical experimental model of PIFIR “pain-induced functional impairment model in the rat” was used.

rat population = conditions: rats, oral route; FIG. 8

Q: With “2-amino-2-hydroximethyl-1,3 propanediol (1:1) S-(−)-5-benzoyl-2,3-dihydro-1H-pyrrolizine-1-carboxylate [S-(−)-ketorolac tromethamine]” as the substance, how does the “RELATIVE EFFICACY” value [1] read?
A: 1.0

Q: And the therapeutic index (rat population)?
A: very high and favorable therapeutic index
